From paper PMC7563927 (Cells, 2020)

Experiments:
[1] = pH 7.4
[2] = pH 7.4; remark: listed apart in the source

human islet amyloid polypeptide [human IAPP, reference compound]
Membrane leakage (calcein) of PC:PS LUVs [1]: induced leakage | Membrane leakage (calcein) of PC LUVs [2]: more resistant to leakage
